Patent US11844795B2, “Combination therapy for cancer treatment” (Ipsen Biopharm Ltd., priority 2015, dated 2023)

Chains of the proteins cited; added tags and fusions are not shown.
UniProt Q9UGN5, whole entry, species assumed: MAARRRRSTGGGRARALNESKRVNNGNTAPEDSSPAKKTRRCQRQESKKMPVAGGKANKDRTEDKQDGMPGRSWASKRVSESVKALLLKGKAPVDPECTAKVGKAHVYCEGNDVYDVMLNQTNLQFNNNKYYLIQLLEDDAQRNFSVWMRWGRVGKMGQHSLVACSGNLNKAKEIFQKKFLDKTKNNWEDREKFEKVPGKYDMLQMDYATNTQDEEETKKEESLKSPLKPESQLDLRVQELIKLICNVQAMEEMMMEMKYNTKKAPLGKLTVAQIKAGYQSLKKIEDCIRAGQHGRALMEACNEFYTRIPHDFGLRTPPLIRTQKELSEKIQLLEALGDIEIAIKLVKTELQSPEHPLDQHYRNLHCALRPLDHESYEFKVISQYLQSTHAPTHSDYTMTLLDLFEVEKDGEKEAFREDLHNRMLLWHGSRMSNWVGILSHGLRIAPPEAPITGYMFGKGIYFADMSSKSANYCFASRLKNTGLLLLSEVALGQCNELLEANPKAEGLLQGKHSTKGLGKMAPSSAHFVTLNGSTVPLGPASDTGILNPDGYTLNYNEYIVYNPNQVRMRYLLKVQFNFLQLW

How the values were obtained:
BT20 = assay: Cell survival (CellTiter-Glo) after SN-38 and/or PARP inhibitor; type: cell-based; details: Exp. 2, single agent
HCC70 = assay: as above; type: cell-based; details: Exp. 2, single agent
SUM159PT = assay: as above; type: cell-based; details: Exp. 2, single agent
SUM149PT = assay: as above; type: cell-based; details: Exp. 2, single agent
BT549 = assay: as above; type: cell-based; details: Exp. 2, single agent
PARP 2 = PARP 2 (Homo sapiens, UniProt Q9UGN5); details: cited from earlier work

| Structure (SMILES) | Maximum Kill Percent (BT20) | Maximum Kill Percent (HCC70) | Maximum Kill Percent (SUM159PT) | Maximum Kill Percent (SUM149PT) | Maximum Kill Percent (BT549) | IC50 (PARP 2) |
| --- | --- | --- | --- | --- | --- | --- |
| O=C(c1cc(Cc2n[nH]c(=O)c3ccccc23)ccc1F)N1CCN(C(=O)C2CC2)CC1 [Olaparib] | 98% | 50% | 94% | 100% | 100% |  |
| O=C(COc1cccc2c(=O)[nH]ccc12)c1ccccc1 [UPF-1069] |  |  |  |  |  | 300 nM |
